# Compounds with a hit are over-represented: about 2.4% of the library has one in this group of screens.
# ClpP mod: qHTS Assay for Activators of ClpP; purified B. subtilis ClpP, FRET peptide cleavage, 20 min; Potency, µM (titrated, usually from 57.5 µM), for inactives: top-dose activity change, negative = active; hit rate 1.9% among 340,000; AID 651965, 2013; active = well fitted falling curve with a large enough effect; inconclusive = small, poorly fitted or top-dose-only effect; inactive = no such curve, though single readings can be large or run the other way; also: the source files actives as falling curves though it sought activators and does not explain the sign; nearly all actives have a fitted effect of over 65% in size
#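 ClpP 10 microg/mL final, pH 8 Tris/KCl buffer with BSA, glycerol, Tween-20; compound pinned in; FRET-FV substrate; RT 20 min; Ex320/Em430; ΔFRET vs ADEP 5.8 microM, DMSO, no enzyme.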
# ALOX12 inh: blocks human arachidonate 12S-lipoxygenase. P18054. purified 12hLO, xylenol orange hydroperoxide absorbance. Potency, µM (top dose mostly 108 µM), for the others: at the top dose activity change, negative = inhibition, hits mostly inhibitors. hit rate 1.1% among 580,000; also: % is scaled to controls: 0 for no effect and ±100 for the full control effect
#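 Purified human 12hLO (150 nM final) in 25 mM Hepes, 0.01% Triton X-100, pH 7.0 was preincubated 15 min at room temperature with compound. Then 40 uM arachidonic acid was added, 30 min. Hydroperoxide was read by Fe-XO absorbance ratio 573/405 nm.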
# Rango release inh: inhibitors of RanGTP-induced Rango-importin beta complex dissociation; Biochemical FRET Rango-importin beta, RanGTP-induced dissociation; Potency, µM (highest dose often 46.1 µM), without a hit: at the highest dose activity change, negative = inhibition; AID 540253; hit rate 0.071% among 340,000; O95149+P62826; calls by dose curve; also: % of control where 0% means no effect; nearly all actives have a fitted effect of over 45% in size
#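 Rango FRET biosensor (snurportin-1 IBB flanked by N-terminal EYFP and C-terminal CFP10) at 0.1 uM, with 0.25 uM importin beta in PBS, 1mM DTT, 0.02% Tween-20, 0.1% BSA. 0.6 uM Ran, 2mM GTP and 0.2 uM RCC1 were then added for 45 min at room temperature. Inhibition read as loss of FRET rise.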
# TDP1 block: TDP1 (human) enzyme inhibition; Potency, µM (highest dose often 130 µM), for inactives: at the highest dose activity change, negative = inhibition, actives largely listed as inhibitors; Q9NUW8; recombinant TDP1, AlphaScreen DNA substrate cleavage; hit rate 0.28% among 350,000; also: % is scaled to controls: 0 for no effect and ±100 for the full control effect; nearly all actives have a fitted effect of over 40% in size
#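 AlphaScreen read-out: signal falls as enzyme removes the 3' tyrosine-FITC from a 5'-biotinylated DNA oligo (15 nM, 5 min, RT). Enzyme was E. coli-made recombinant Tdp1 at 1 nM, exposed to compound for 15 min beforehand; beads 10 ug/ml, 10 min.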
# PTAP TSG101 blk: blocks PTAP/TSG101 interaction to inhibit HIV-1 budding. Q99816. Fluorescence polarization, FITC-PTAP peptide / Tsg101 binding. Potency, µM (series often up to 115 µM), for the others: at the top dose activity change, negative = inhibition, most hits filed as inhibitors. 340,000 tested, under 10 active. AID 493005; active = well fitted inhibition curve with a large enough effect in the main read-out, with a control signal flat, not every such curve was filed as active; inconclusive = small, poorly fitted or top-dose-only effect, or effect the other way, or a change in a side signal; inactive = no such curve, though single readings can be large or run the other way; also: % of control where 0% means no effect
#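 Compounds were pin-transferred onto Tsg101 binding domain (10 uM final) in HEPES pH 7.5 buffer, then FITC-PTAP peptide was added at 50 nM final. After 20 min at RT, polarization reported peptide displacement across a qHTS concentration series.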
# Rango complex inh: inhibitors of Rango-importin beta complex formation; Q14974; Rango CFP/YFP FRET sensor + importin beta, 45 min; Potency, µM (highest dose often 92.2 µM), inactives show top-dose inhibition of complex formation; hit rate 0.031% among 340,000; calls by dose curve;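 also: 0% = DMSO wells and 100% = buffer wells lacking importin beta; nearly all actives have a fitted effect of over 15% in size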
#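 Inhibition scored from the CFP 486 nm/YFP 530 nm FRET ratio 45 min after adding 0.125 microM importin beta to 50 nM Rango biosensor preincubated 5 min with compound (room temperature, PBS with DTT, Tween-20, BSA). No-importin wells as positive control.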
# The depositor's hits bear a star; ? = inconclusive; / = no result; ! = a repeat was not active; [ ] = another dose, or the depositor's remark. Unless noted, calls follow the shape of the dose curve; as a rule, active = well fitted curve in the direction sought with a large enough effect; inconclusive = small, poorly fitted or top-dose-only effect, or another doubt; inactive = no such curve, though single readings can be large; an effect the other way counts as inactive or inconclusive. Potency is read from the fitted curve at half-maximal effect.
1) O=C(CCNC(=O)c1ccccc1)Nc1ccc(F)c(Cl)c1
2) COc1ccc2[nH]cc(CCNC(=O)c3ccccc3F)c2c1
3) Cc1cccc(NC(=O)Cn2c(/C=C/c3ccccc3)nc3ccccc32)c1
4) CC(=O)N(\C=C/C=C/C=C1\Sc2ccccc2C1=O)c1ccccc1
5) CN(C)/C=C1/Sc2ccccc2C1=O
6) COc1ccccc1NC(=O)N1C[C@@H](F)C[C@H]1C(=O)N1CCc2ccccc2C1
7) COCCCn1c(CCC(=O)O)ccc1-c1cccs1
8) CCCn1c(CCC(=O)O)ccc1-c1cccs1

Compound,1,2,3,4,5,6,7,8
ClpP mod,1.7%,/,31.6µM*,/,-5.1%,/,?,25.1µM*
ALOX12 inh,-7.0%,3.6%,17.4%,15.8µM*,?,14.1%,0.0%,?
Rango release inh,-5.4%,/,4.6%,-17.8%,?,/,?,?
TDP1 block,1.8%,/,8.2%,2.5%,6.9%,/,2.2%,8.2%
PTAP TSG101 blk,-1.5%,/,-2.8%,-9.4%,-2.5%,/,-2.2%,-2.4%
Rango complex inh,0.8%,/,3.4%,?,?,/,?,?

9) COc1ccc(-c2ccc(CCC(=O)O)n2CC2CCCO2)cc1 (stereo not drawn)
10) O=C(O)CCc1ccc(-c2cccs2)n1CC1CCCO1 (stereo not drawn)
11) O=C(O)CCc1ccc(-c2ccc(F)cc2)n1CC1CCCO1 (stereo not drawn)
12) CNC(=O)CCc1c(-c2ccccc2)[nH]c2ccc(F)cc12
13) CCOc1cccc(C(=O)NC(=S)Nc2ccccc2)c1
14) CCOc1cccc(C(=O)NC(=S)Nc2cccc(NC(=O)c3ccccc3Cl)c2)c1
15) CCCCOc1cccc(C(=O)NC(=S)Nc2cccc(C(F)(F)F)c2)c1
16) CC(C)Oc1cccc(C(=O)NC(=S)Nc2cccc(C(F)(F)F)c2)c1

Compound,9,10,11,12,13,14,15,16
ClpP mod,/,25.1µM*,22.4µM*,/,3.7%,0.9%,0.7%,3.4%
ALOX12 inh,-22.2%,-27.7%,0.0%,35.5%,14.1µM*,11.2µM*,31.6µM*,?
Rango release inh,?,5.17µM*,8.6%,/,-15.2%,3.3%,-8.8%,-7.4%
TDP1 block,8.1%,2.2%,3.1%,/,2.6%,-3.4%,8.2%,1.0%
PTAP TSG101 blk,2.4%,-1.6%,-1.2%,/,-0.9%,0.2%,-4.0%,-5.6%
Rango complex inh,?,?,-3.3%,/,4.6%,?,0.5%,2.6%

17) COc1ccc(CN2C=C(C(=O)OCc3nc(-c4cccc(F)c4)no3)C(C)=NS2(=O)=O)cc1
18) O=C1OCC2=C1C(c1ccccc1)NC(=O)N2Cc1nc(C2CC2)no1 (stereo not drawn)
19) CC(O)CN(CC(C)O)c1ccc2c(c1)Cc1cc([N+](=O)[O-])ccc1-2 (stereo not drawn)
20) Cc1ccccc1CN1c2ccccc2-c2nc(SCC(=O)NCc3ccccc3)ncc2S1(=O)=O
21) Cc1cc(N2CCN(c3ccccc3Cl)CC2)n2cc(-c3ccccc3)nc2n1
22) COc1ccc(C)cc1NC(=O)COC(=O)c1ccccc1SCC(=O)N1CCCC1
23) CCCCCCCCCCCCCCCC[n+]1ccc(C(N)=O)cc1
24) CCCCCCCCCCCCCCCC[n+]1cccc(C(=O)N(CC)CC)c1

Compound,17,18,19,20,21,22,23,24
ClpP mod,/,/,1.1%,31.6µM*,14.1µM*,28.2µM*,?,0.1%
ALOX12 inh,-0.4%,43.7%,-0.1%,?,-9.9%,-6.7%,44.7µM*,?
Rango release inh,/,/,?,/,-11.7%,6.7%,2.3%,?
TDP1 block,/,/,/,-7.9%,3.1%,/,0.0%,-5.5%
PTAP TSG101 blk,/,/,17.2%,/,-0.1%,-0.5%,-1.0%,-2.3%
Rango complex inh,/,/,18.4µM*,/,-7.8%,-3.7%,12.0%,73.1µM*!

25) CCCCCCCC[n+]1cccc(C(=O)N(CC)CC)c1
26) CCCCOc1ccc(C(N)=O)cc1
27) O=C(O)c1ccc(C2CCCN(C(=O)CCN3CCOCC3)C2)cc1 (stereo not drawn)
28) O=C(NCCN1CCCCC1)C1CCCC1
29) Cc1ccc2nc3c(cc(C(N)=S)c(=N)n3CCCOC(C)C)c(=O)n2c1
30) COCCCn1c(=N)c(C(N)=S)cc2c(=O)n3cccc(C)c3nc21
31) CSc1ncccc1C(=O)N1C[C@@H](CN2CCCCC2)[C@@H](CO)C1
32) CC(=O)NC1C(=O)N(CCN2CCOCC2)c2ccc(Cl)cc21 (stereo not drawn)

Compound,25,26,27,28,29,30,31,32
ClpP mod,1.2%,-0.2%,/,/,22.4µM*,/,/,/
ALOX12 inh,-3.1%,/,38.1%,-4.6%,?,?,52.0%,39.8µM*
Rango release inh,0.0%,/,/,/,?,?,/,-7.4%
TDP1 block,-1.1%,/,/,/,5.3%,/,/,/
PTAP TSG101 blk,-1.2%,/,/,/,5.3%,-3.7%,/,-5.3%
Rango complex inh,1.0%,/,/,/,?,?,/,3.8%

33) CC(=O)NC1C(=O)N(CCN2CCOCC2)c2ccc(F)cc21 (stereo not drawn)
34) CC(=O)NC1C(=O)N(CCN2CCOCC2)c2ccc(C)cc21 (stereo not drawn)
35) COc1ccc(C(=O)N2CCC(N3C(=O)C4(CCCCC4)C3c3ccncc3)CC2)cn1 (stereo not drawn)
36) COc1c(O)cc(O)cc1O
37) O=C(C1CN(C(=O)c2cc(Cl)ccc2Cl)c2ccccc2O1)N1CCOCC1 (stereo not drawn)
38) Cc1nnc(NCC(O)COC(C)c2ccccc2)c(C#N)c1C (stereo not drawn)
39) O=C(Nc1ccccc1Cc1ccccc1)c1oc2ccccc2c1COc1ccccc1
40) COC(=O)c1ccc(COc2ccc3ccccc3c2)o1

Compound,33,34,35,36,37,38,39,40
ClpP mod,-3.3%,-7.5%,/,/,/,/,28.2µM*,/
ALOX12 inh,39.8µM*,/,8.6%,/,-25.1%,-26.5%,-16.2%,-19.7%
Rango release inh,5.9%,-15.6%,/,/,/,/,2.5%,/
TDP1 block,/,/,/,20µM*,/,/,-1.9%,/
PTAP TSG101 blk,-3.9%,-10.9%,/,/,/,/,-0.7%,/
Rango complex inh,2.3%,?,/,/,/,/,-8.6%,/

# Sorted by formula weight (highest first): some entries from above.
9) COc1ccc(-c2ccc(CCC(=O)O)n2CC2CCCO2)cc1 (stereo not drawn)
11) O=C(O)CCc1ccc(-c2ccc(F)cc2)n1CC1CCCO1 (stereo not drawn)
5) CN(C)/C=C1/Sc2ccccc2C1=O

Compound,9,11,5
ClpP mod,/,22.4µM*,-5.1%
ALOX12 inh,-22.2%,0.0%,?
Rango release inh,?,8.6%,?
TDP1 block,8.1%,3.1%,6.9%
PTAP TSG101 blk,2.4%,-1.2%,-2.5%
Rango complex inh,?,-3.3%,?

# The list continues.
41) CN(C)C[C@@H]1CN(c2ccncn2)C[C@H]1NC(=O)Cc1ccsc1
42) O=C(Nc1ccc2ccccc2c1)c1cn(-c2ccccc2)nc1-c1cccs1
43) O=c1c2ccccc2c(C=NC2CCS(=O)(=O)C2)c(O)n1-c1ccccc1 (stereo not drawn)
44) O=S1(=O)CCC(N=Cc2cc(Br)ccc2O)C1 (stereo not drawn)
45) CN(C)c1ccc2c(c1)COC2=O
46) CC(C)(C)CN1CCCC12Cc1ccccc1CNC2=O (stereo not drawn)
47) COc1cc(OC)cc(C(=O)NC(=S)NNC(=O)c2cnccn2)c1
48) COc1ccc(C(=O)NC(=S)NNC(=O)c2cnccn2)cc1OC
49) COc1cc(NC(=O)N2c3ccccc3Sc3ccccc32)c(C(=O)O)cc1OC

Compound,41,42,43,44,45,46,47,48,49
ClpP mod,/,31.6µM*,-0.4%,-3.8%,/,/,0.7%,-1.9%,4.6%
ALOX12 inh,57.8%,0.0%,0.0%,28.2µM*,-20.1%,0.4%[12.5 µM],50.1µM*,-19.9%,20µM*
Rango release inh,/,0.7%,-15.2%,?,/,/,-15.5%,0.2%,-2.7%
TDP1 block,/,1.0%,4.2%,0.0%,/,/,-2.6%,7.9%,9.5%
PTAP TSG101 blk,/,-1.2%,-2.4%,-1.2%,/,/,-0.5%,1.8%,-5.5%
Rango complex inh,/,0.3%,-5.2%,?,/,/,0.3%,-4.4%,-5.8%

# Bioassay records from PubChem.
